Source: patent publication US9296759B2, “Amino-oxazine and amino-dihydrothiazine compounds as beta-secretase modulators and methods of use” (AMGEN INC., priority 2011, dated 2016)

Amino acid sequences for entries named in this document (tags omitted). Residues count along the entry.
UniProt P56817, 46-501: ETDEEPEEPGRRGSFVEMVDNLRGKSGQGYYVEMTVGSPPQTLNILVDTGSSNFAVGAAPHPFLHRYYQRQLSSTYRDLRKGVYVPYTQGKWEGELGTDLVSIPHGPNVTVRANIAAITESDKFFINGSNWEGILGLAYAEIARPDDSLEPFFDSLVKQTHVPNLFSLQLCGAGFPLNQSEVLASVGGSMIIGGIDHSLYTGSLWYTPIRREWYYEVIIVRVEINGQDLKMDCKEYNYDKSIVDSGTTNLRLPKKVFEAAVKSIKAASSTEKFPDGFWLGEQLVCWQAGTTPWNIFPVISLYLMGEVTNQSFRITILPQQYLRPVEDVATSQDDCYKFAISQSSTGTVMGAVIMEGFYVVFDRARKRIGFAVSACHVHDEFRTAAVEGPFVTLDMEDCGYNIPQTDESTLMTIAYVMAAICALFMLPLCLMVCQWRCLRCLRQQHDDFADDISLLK
UniProt P07339, 65-412, species assumed: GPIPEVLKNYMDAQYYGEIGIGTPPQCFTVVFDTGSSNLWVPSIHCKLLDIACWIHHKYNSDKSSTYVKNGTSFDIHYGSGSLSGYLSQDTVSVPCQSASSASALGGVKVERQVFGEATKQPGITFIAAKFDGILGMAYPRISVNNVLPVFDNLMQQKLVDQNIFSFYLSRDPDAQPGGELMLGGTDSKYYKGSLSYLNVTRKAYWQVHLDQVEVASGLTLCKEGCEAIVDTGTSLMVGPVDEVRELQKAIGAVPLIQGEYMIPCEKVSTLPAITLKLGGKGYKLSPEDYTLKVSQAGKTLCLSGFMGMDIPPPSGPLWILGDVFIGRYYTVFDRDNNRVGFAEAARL

Assays:
[1] = test system: Aβ40 in conditioned medium of cells stably expressing Amyloid Precursor Protein (APP); experiment: In vitro BACE cell-based assay (HEK cell assay, Aβ40 sandwich ELISA); conditions: Homo sapiens, HEK293; average IC50, Aβ40, 24 h incubation
Method: In Vitro BACE Cell-Based Assay
The cell-based assay measures inhibition or reduction of Aβ40 in conditioned medium of test compound treated cells expressing amyloid precursor protein.
Cells stably expressing Amyloid Precursor Protein (APP) were plated at a density of 40K cells/well in 96 well plates (Costar). The cells were cultivated for 24 hours at 37° C. and 5% CO2 in DMEM supplemented with 10% FBS. The test compounds were then added to cells in 10-point dose response concentrations with the starting concentration being either 100 μM or 10 μM. The compounds were diluted from stock solutions in DMSO and the final DMSO concentration of the test compounds on cells was 0.1%. After 24 h of incubation with the test compounds the supernatant conditioned media was collected and the Aβ 40 levels were determined using a sandwich ELISA. The IC50 of the compound was calculated from the percent of control or percent inhibition of Aβ 40 as a function of the concentration of the test compound. […]
Cellular supernatants were incubated with the capture antibody for 3 h at 4° C., followed by 3 wash steps in TBS-tween (0.05%). […] The final readout of the ELISA is Time-Resolved Fluorescence (counts per minute) using Delfia reagents Streptavidin-Europium and Enhancement solutions (Perkin Elmer) and the Victor 2 multilabel counter (Perkin Elmer).

[2] = target: BACE 1 (beta secretase enzyme) (Homo sapiens (Human), UniProt P56817); experiment: In vitro enzymatic BACE FRET assay; type: biochemical; conditions: average IC50
Method: In Vitro Enzymatic BACE FRET (Fluorescence Resonance Energy Transfer) Assay
The assay buffer used in this screen is 0.05 M acetate, pH 4.2, 10% DMSO final, 100 uM genapol (which is a nonionic detergent, below its Critical Micelle Concentration). The beta secretase enzyme (0.2 nM) is pre-incubated for one hour with inhibitors, typically in about 1 uL of DMSO according to a serial dilution, are added thereto. This assay is effectively started by the addition of FRET substrate (50 nM) and the combination is incubated for one hour. The FRET assay is terminated with by addition of Tris buffer, which raises the pH to neutrality, and the fluorescence is determined. The FRET substrate is a peptide with commercially available fluorophore and quencher, on opposite sides of the BACE cleavage site. Proteolytic cleavage of the FRET substrate releases quenching of fluorescence (excitation […] and […]).

Cathepsin D = Cathepsin D (Homo sapiens (Human), UniProt P07339); experiment: In vitro enzymatic Cat D (Cathepsin D) FRET assay; type: biochemical; conditions: average IC50
Method: In Vitro Enzymatic Cat D (Cathepsin D) FRET (Fluorescence Resonance Energy Transfer) Assay
Recombinant CathepsinD was expressed in CHO cells. The assay buffer for CathepsinD is 0.05 M citrate pH 3.5, 10% DMSO final, 5 mM CHAPS. […] The assays are effectively started by the addition of different FRET substrates (20 nM for CathepsinD) and the combination is incubated for one hour. The FRET assay is terminated with by addition of Tris buffer, which raises the pH to neutrality, and the fluorescence is determined. The FRET substrate is a peptide with commercially available fluorophore and quencher, on opposite sides of the BACE cleavage site. […] Proteolytic cleavage of the FRET substrate releases quenching of fluorescence (CathepsinD excitation 500 nm and emission 580 nm).

Row | IC50 [1] | IC50 [2] | IC50 (Cathepsin D) | Compound
1 | 0.028 µM | 0.0267 µM | – | COc1cnc(C(=O)Nc2ccc3c(c2)[C@@]2(CCOC(N)=N2)c2cc(Cl)nc(F)c2O3)cn1 [Example 47, N-((5S)-2′-amino-3-chloro-1-fluoro-5′,6′-dihydrospiro[chromeno[2,3-c]pyridine-5,4′-[1,3]oxazin]-7-yl)-5-methoxy-2-pyrazinecarboxamide]
2 | 0.0011 µM | 0.0011 µM | – | COc1ccc(C(=O)Nc2ccc3c(c2)[C@@]2(CCOC(N)=N2)c2cc(-c4ccnc(F)c4)nc(F)c2O3)nc1 [Example 98, N-((5S)-2′-amino-1-fluoro-3-(2-fluoro-4-pyridinyl)-5′,6′-dihydrospiro[chromeno[2,3-c]pyridine-5,4′-[1,3]oxazin]-7-yl)-5-methoxy-2-pyridinecarboxamide]
3 | – | 0.0088 µM | 400 µM | NC1=N[C@@]2(CCO1)c1cc(NC(=O)c3ccc(F)cn3)ccc1Oc1c(F)cc(-c3ccnc(F)c3)cc12 [Example 102, N-((4S)-2-amino-5′-fluoro-7′-(2-fluoro-4-pyridinyl)-5,6-dihydrospiro[1,3-oxazine-4,9′-xanthen]-2′-yl)-5-fluoro-2-pyridinecarboxamide]
